{"source": "ChEMBL document CHEMBL1157141", "about": "“Prediction of intestinal absorption and metabolism of pharmacologically active flavones and flavanones” (Bioorg Med Chem, 2008)", "test": "Stability in hank's balanced salt solution at 15 uM after 20 mins", "assay_type": "physicochemical", "details": "read-out: Stability", "data": [{"smiles": "O=C1C[C@@H](c2ccc(O)cc2)Oc2cc(O)cc(O)c21", "note": "[NARINGENIN]", "values": [{"measurement": "remaining at 20 min, 15 µM", "result": 102, "unit": "%"}]}]}
